Apparent affinities of Ab-14 variants for a coronavirus HR2 peptide

Antigen: PDVDLGDISGINAS, a 14-residue peptide of the SARS-CoV-2 spike HR2 region.

Parent scFv Ab-14: VH joined to VL by a 15-residue (Gly4Ser)3 linker. Changes lie in the light chain CDRs alone.
VH: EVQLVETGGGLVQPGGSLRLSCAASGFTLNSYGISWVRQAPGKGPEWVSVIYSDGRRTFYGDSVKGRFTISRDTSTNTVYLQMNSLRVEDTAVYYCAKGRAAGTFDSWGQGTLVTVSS
VL: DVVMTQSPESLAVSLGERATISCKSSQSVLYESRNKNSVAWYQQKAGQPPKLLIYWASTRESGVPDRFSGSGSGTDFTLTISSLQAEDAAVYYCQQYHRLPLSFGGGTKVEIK

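Phage display of a naive human antibody library on the peptide gave the parent. AAYL50 was designed without a model: most single CDR substitutions and a random sample of double and triple ones. In AlphaSeq, yeast of one mating type display the scFv and yeast of the other type display the target. Pairs that bind mate more often; barcode pairs of the diploids are counted by sequencing. Scores were corrected for input abundance and mapped to Kd with protein pairs of known affinity run in the same pool. Mating was done three times.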

Variants are written as CDR1, CDR2 and CDR3 of the light chain (limits as in the source). Parent: KSSQSVLYESRNKNSVA, WASTRES, QQYHRLPLS.
All variants listed here change W56 of the VL, counted from its first residue.
Scale: log10 of Kd in nM, estimated from mating counts; low values are strong binders.
Replicates are averaged; those with no signal do not enter the mean.
An entry "n.d." has no value in the source: the pair was not observed among the diploids in that replicate. This suggests poor binding but is not conclusive.
As a blank, each scFv also met three strains without target: over library AAYL50, 18% of these pairings were detected, typically at 4.19 and seldom below 2.99.

CDR-L1,CDR-L2,CDR-L3,log10 Kd (nM) by replicate,"mean, log10 nM"
KSSQSVLYESRNKNSVA,SASTYES,QQYERLPLS,n.d. n.d. n.d.,n.d.
KSSQSNHYESRNKNSVA,FASTRES,QQYHRLPLS,2.34 2.23 2.08,2.22
KSSQSVLYESLNKNSVA,KASTRES,QRYHRLPLS,1.30 1.47 1.30,1.36
KSSQSVSYESRNKNSVA,AASTRES,QQYHRLELS,n.d. n.d. 3.45,3.45
KSSQSVLYKSRNKNSVA,MASTRES,QQYHQLPLS,0.77 1.24 0.97,0.99
KSSQSVLYESRRPNSVA,AASTRES,QQYHRLPLS,n.d. n.d. n.d.,n.d.
KSSQSVLYESRNKNSVA,MASTRPS,QNYHRLPLS,1.23 1.13 1.16,1.17
KSSQSVFNESRNKNSVA,MASTRES,QQYHRLPLS,0.53 0.72 0.68,0.64
KSSQSVLYESRNKNSVA,VASTREP,QQYHRLPLI,2.29 2.56 2.62,2.49
KSSQSHLYETRNKNSVA,NASTRES,QQYHRLPLS,0.02 0.30 0.21,0.18
KSAQSVLYESRNKNSIA,YASTRES,QQYHRLPLS,n.d. n.d. n.d.,n.d.
KSSQSVLYESRNKNSVA,GASTRES,QQYHRLPWS,n.d. n.d. n.d.,n.d.
KSSQSVLYESRNKNSVA,RASTRES,QQYHQWPLS,1.58 1.41 1.62,1.54
KSSQSVLFEVRNKNSVA,NASTRES,QQYHRLPLS,0.07 0.37 0.19,0.21
RSSQSVLYESRNKNSVA,DASTRES,QQYHRLPLS,-0.23 0.08 -0.12,-0.09
KSSQNVLYESRNINSVA,LASTRES,QQYHRLPLS,1.73 1.55 1.69,1.66
VSSQSVLYESRNKNSVA,TASTRES,QQYHLLPLS,1.84 2.79 2.26,2.30
KSSQSVLYESRNKNSVA,HASHRES,QQYHRLPRS,n.d. n.d. n.d.,n.d.
KSSQSVLYESRNKNVVA,KASTRES,QQYHRAPLS,n.d. n.d. n.d.,n.d.
KSSGSVLYESRNKNSVA,FASTRES,QQTHRLPLS,2.33 2.43 2.42,2.39
KSSQSVLYISRNKNSVA,NASTPES,QQYHRLPLS,3.21 5.17 n.d.,4.19
KFSQSVLYESRNKNSVA,FASTRES,QQYHRLPLS,0.01 0.62 0.14,0.26
KSSQSVLYELRNINSVA,FASTRES,QQYHRLPLS,1.19 1.47 2.07,1.58
KESQSVLYESRNKNSVA,NESTRES,QQYHRLPLS,-0.35 0.00 -0.24,-0.20
KSSQMVLYESRNKNSVR,VASTRES,QQYHRLPLS,n.d. n.d. n.d.,n.d.
KYSQSVLYESRNKQSVA,GASTRES,QQYHRLPLS,-0.57 -0.17 -0.47,-0.40
KSSQSVLYESRNKNSVA,LAWTRES,QQYHRLPLW,n.d. n.d. n.d.,n.d.
KSQQSVLYESRNKNSVA,PASTRES,QQYHRLPLS,n.d. n.d. 3.63,3.63
KSSQSVLYESRNKISVA,PASTRES,QQYERLPLS,n.d. 3.79 n.d.,3.79
KSQQSVLYESRNKNSVS,GASTRES,QQYHRLPLS,0.07 0.40 0.26,0.24
KSSQSVLYESRNKNNVA,EASTHES,QQYHRLPLS,-0.09 0.23 0.06,0.07
DDSQSVLYESRNKNSVA,LASTRES,QQYHRLPLS,2.25 2.50 2.63,2.46
KSSQSVLYESRVKNSVA,VASTRWS,QQYHRLPLS,n.d. n.d. n.d.,n.d.
KSSQSVLYESRNKNSVA,QASTRES,QQYHRLPLS,0.48 0.56 0.53,0.52
KSSPSVLYESRNKNSVA,KASTRES,QQYHRLPPS,0.91 1.02 0.97,0.97
KSSQSVLYESRNANSVA,GASTRES,QQYHPLPLS,6.23 4.55 5.05,5.28
KSSQSVLYESRNKNSVS,VAITRES,QQYHRLPLS,3.04 n.d. n.d.,3.04
KSSQSVLYESRNKNSVN,LASTREH,QQYHRLPLS,n.d. n.d. n.d.,n.d.
KSSQSVLYESRNPNSVA,RASTDES,QQYHRLPLS,n.d. n.d. n.d.,n.d.
KSSQSVLYESRNKNSVF,YASTRES,QQYQRLPLS,n.d. n.d. n.d.,n.d.
KSSQSVLYESRNKNSVA,SASTRES,QQFHRLPLS,0.12 0.41 0.26,0.27
KSSQSVLYESRNKNSVA,TASTRED,QQYHQLPLS,0.94 1.09 1.19,1.08
KSSQKVLYESRNKNSVA,TASTEES,QQYHRLPLS,3.82 5.03 n.d.,4.43
KSSQSVLYESRNKHSVA,HASTRES,QQYHRLPLS,0.98 1.08 0.87,0.98
KSSQSVLYESRNKNSVA,MASTRES,FQCHRLPLS,5.49 3.98 4.89,4.79
KSSQSVLYESRNKNSVA,YASHRES,QQYHRLPLS,1.62 2.19 2.00,1.94

Extract of 3 entries:

{"CDR-L1": "KSSQMVLYESRNKNSVR", "CDR-L2": "VASTRES", "CDR-L3": "QQYHRLPLS", "log10 Kd (nM) by replicate": "n.d. n.d. n.d.", "mean, log10 nM": "n.d."}
{"CDR-L1": "KSSQSVLYESRNKNSVF", "CDR-L2": "YASTRES", "CDR-L3": "QQYQRLPLS", "log10 Kd (nM) by replicate": "n.d. n.d. n.d.", "mean, log10 nM": "n.d."}
{"CDR-L1": "KSSQSVLYESRNKNSVA", "CDR-L2": "TASTRED", "CDR-L3": "QQYHQLPLS", "log10 Kd (nM) by replicate": "0.94 1.09 1.19", "mean, log10 nM": "1.08"}

Data: MIT Lincoln Laboratory AlphaSeq set, Engelhart et al. 2022, doi:10.1038/s41597-022-01779-4, as distributed in FLAb.